The text below walks through data of PubChem BioAssay AID1018 (Sanford-Burnham Center for Chemical Genomics, 2008).

The chains behind the UniProt entries cited, without tags or fusion partners.
UniProt P98170, whole entry, looked up: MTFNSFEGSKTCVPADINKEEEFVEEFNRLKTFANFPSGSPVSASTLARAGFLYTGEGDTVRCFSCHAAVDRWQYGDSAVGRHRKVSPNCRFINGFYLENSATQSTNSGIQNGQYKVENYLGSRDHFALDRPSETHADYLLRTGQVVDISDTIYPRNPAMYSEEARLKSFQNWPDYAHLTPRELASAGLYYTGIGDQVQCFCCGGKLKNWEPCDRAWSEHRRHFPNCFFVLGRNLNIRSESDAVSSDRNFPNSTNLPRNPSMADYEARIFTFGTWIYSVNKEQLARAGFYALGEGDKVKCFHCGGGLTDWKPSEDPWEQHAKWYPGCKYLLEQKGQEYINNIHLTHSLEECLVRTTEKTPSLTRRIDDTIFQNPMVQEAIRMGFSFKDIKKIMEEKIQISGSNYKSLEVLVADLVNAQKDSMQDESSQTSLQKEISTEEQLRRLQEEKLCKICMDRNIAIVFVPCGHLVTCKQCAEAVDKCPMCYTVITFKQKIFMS

SMILES strings stand for the structures. Only a part is listed here, and it is no random draw. Calls of active or inactive are those of the source. Cut-off read from the data, not from the text of the source: active = displacement above about 50%; inactive = the rest.

In this assay the target is E3 ubiquitin-protein ligase XIAP (Homo sapiens) (UniProt P98170). Kind of assay: small molecules displacing peptide from XIAP – biochemical, IAP family, fluorescence polarization (AID 1018). As to conditions: XIAP BIR domain, at 20 µM, stronger effect = higher value. On the technique in general: Fluorescence polarisation rises when a labelled molecule tumbles more slowly, as on binding a larger partner.
Take `Cc1cc(SC(NC(=O)c2ccccc2)C(Cl)(Cl)Cl)nc(C(C)C)n1` (centres undefined): the displacement is inactive: -4.8%.
`O=P(Nc1ccccn1)(c1cccc2ccccc12)c1cccc2ccccc12`: the displacement is inactive: -5.9%.
With `Cc1cc(SC(NC=O)C(Cl)(Cl)Cl)ncn1` (centres undefined) the figure was inactive: -10%; with `O=C(COc1ccccc1)OC1CN2CCC1CC2` (centres undefined), inactive: -2.5%; with `COP1(=S)c2c(C)nn(CCC#N)c2N=C(c2ccc(F)cc2)N1C` (centres undefined), inactive: -5.4%.
With `CCC(C)N(CC(C)C)C(=S)SC(NC(C)=O)C(Cl)(Cl)Cl` (centres undefined) the figure was inactive: -4.7%; with `COc1ccc2nc(NP(=O)(c3ccccc3)c3ccccc3)sc2c1`, inactive: -3.1%; with `O=C(OC1CN2CCC1CC2)C12CC3CC(CC(C3)C1)C2` (centres undefined), inactive: -3.5%.
With `Cc1cc(=O)[nH]c(N[N+](=O)[O-])n1` the figure was inactive: -5.8%; with `Cc1c2c(nc3ccccc13)SC(C(Cl)Cl)C2` (centres undefined), inactive: -7.8%.
With `COc1ccc(N/C(=N/P(=O)(N2CCOCC2)N2CCOCC2)N2CCOCC2)cc1`, the displacement was inactive: -3.7%.
The value for `Cc1ccc2nc3c(c(C)c2c1)CC(C(Cl)Cl)S3` (centres undefined) was inactive: -6.8%.
With `CC(C)NC(=O)NP(=O)(Oc1ccccc1)Oc1ccccc1` the figure was inactive: -7.2%.
Take `CCN(CC)C(=S)SC(NC=O)C(Cl)(Cl)Cl` (centres undefined): the displacement was inactive: -5.2%.
With `O=[N+]([O-])c1cc([N+](=O)[O-])c(-c2ccn[nH]2)s1` the figure was inactive: -3.1%.
On to `ClCCSc1nnc(-c2cccnc2)o1`, for which the displacement is inactive: -5.5%.
Turning to `CCOP1(=S)c2c(C)nn(CCC#N)c2N=C(c2ccccc2F)N1C` (centres undefined), the displacement was inactive: -3.2%.
The value for `O=P(Nc1nccs1)(Oc1ccccc1)Oc1ccccc1` was inactive: -12.7%; that for `O=P(Nc1nccs1)(c1ccccc1)c1nc2ccccc2s1` (centres undefined) was inactive: -0.5%.
As to `O=[N+]([O-])c1ccc2c(c1)nnn2O`, the displacement was inactive: -0.7%.
Regarding `CCOP1(=S)c2c(C)nn(CCC#N)c2N=C(c2ccc(F)cc2)N1C` (centres undefined), the displacement is inactive: -7.8%.
With `Cc1cccc(OCC(=O)OC2CN3CCC2CC3)c1` (centres undefined) the figure was inactive: -3.1%.
With `COc1cc(C(=O)NCC2(N3CCOCC3)CCCCC2)cc(Cl)c1OC(C)C` the figure was inactive: -2.9%.
With `COc1cc(C2NCCC3(OCCO3)C2(C)C)cc(OC)c1OC` (centres undefined) the figure was inactive: 0.8%; with `CCOP(=O)(Nc1cccc2ccccc12)OCC`, inactive: -0.7%.
In the case of `Cc1ccc(NCCc2c([N+](=O)[O-])cc([N+](=O)[O-])cc2[N+](=O)[O-])cc1`, the displacement is inactive: -2.2%.
With `Clc1n[nH]nc1-c1nn[nH][15n]1` the figure was inactive: -6.1%; with `O=P1(Nc2ccccn2)COc2ccccc2OC1`, inactive: -5.4%.
The value for `CC(C)/C=N\N=C(\N)N[N+](=O)[O-]` was inactive: -4.4%; that for `CN(C(=O)Cc1ccc(Cl)c(Cl)c1)[C@@H]1CCCC[C@H]1N1CCCC1` was inactive: 2.1%.
For the compound `CN(C)C1(CNC(=O)c2ccc(S(C)(=O)=O)cc2)CCCCC1`, the displacement was inactive: -5.9%.
Take `Cc1nn(-c2ccccc2)c2c1P(=O)(N1CCOCC1)N(C)C(c1ccccc1)=N2` (centres undefined): the displacement is inactive: -4.7%.
Take `CC1CCC(C(C)C)C(OP(=O)(Nc2ccccn2)c2ccccc2)C1` (centres undefined): the displacement was inactive: -1.7%.
With `Cc1ccc(OCC(=O)OC2CN3CCC2CC3)cc1` (centres undefined), the displacement was inactive: -6.5%.
The value for `O=P1(Nc2ccc(Br)cn2)COc2ccccc2OC1` was inactive: -4.1%; that for `O=P1(Nc2ncccn2)COc2ccccc2OC1` was inactive: -11.1%.
The value for `O=P(Nc1ccccn1)(c1ccc(Br)cc1)c1ccc(Br)cc1` was inactive: -5.6%.
With `C(Cc1nn[nH]n1)Cc1nn[nH]n1` the figure was inactive: -7.8%; with `O=C(OC1CN2CCC1CC2)c1cccc(Cl)c1` (centres undefined), inactive: -1%; with `CC(=O)NC(SC(=S)N(C)C)C(Cl)(Cl)Cl` (centres undefined), inactive: -2.4%.
For `c1nnnn1CCn1cnnn1`, the displacement is inactive: -2.9%.
With `CC(C)C(=O)NC(Sc1ccccc1)C(Cl)(Cl)Cl` (centres undefined), the displacement was inactive: -4.7%.
With `O=P(Nc1nccs1)(c1ccccc1)c1ccccc1`, the displacement is inactive: -7.7%.
As to `CC(C)(C)C(=O)NC(Sc1ccccc1)C(Cl)(Cl)Cl` (centres undefined), the displacement is inactive: -0.6%.
With `O=P1(Nc2nc3ccc(Cl)cc3s2)COc2ccccc2O1` (centres undefined) the figure was inactive: -2%; with `CCOc1ccc(C2=NCC(CBr)S2)cc1` (centres undefined), inactive: -0.2%.
Consider `CC(=O)Nc1ccc(Oc2c([N+](=O)[O-])cc([N+](=O)[O-])cc2[N+](=O)[O-])cc1`, for which the displacement is inactive: -4.5%.
With `CCNC(=S)/N=C(\N)N[N+](=O)[O-]` the figure was inactive: 1%.
`O=C(NC1CCS(=O)(=O)C1)NP(=S)(Oc1ccccc1)Oc1ccccc1` (centres undefined): the displacement was inactive: -4.7%.
With `c1ccc(-c2nn[nH]n2)c(-c2nn[nH]n2)c1` the figure was inactive: -7.6%.
Take `CCOC(=O)NC(Sc1ccccc1)C(Cl)(Cl)Cl` (centres undefined): the displacement is inactive: -0.6%.
For the compound `O=c1c2cc([N+](=O)[O-])ccc2[nH]c2c([N+](=O)[O-])cc([N+](=O)[O-])cc12`, the displacement was inactive: -5%.
For `COC(=O)c1cc2c(s1)N=C(c1ccccc1)N(C)P2(=O)N1CCOCC1` (centres undefined), the displacement was inactive: -2.2%.
On to `Cc1ccc(OP(=O)(Nc2ccccn2)Oc2ccc(C)cc2)cc1`, for which the displacement is inactive: -3.4%.
The value for `CC(=O)NC(SC(=S)N(CC(C)C)CC(C)C)C(Cl)(Cl)Cl` (centres undefined) was inactive: -1.8%.
With `CCC(=O)N1C2C3N(C(=O)CC)C1C1N(C(=O)CC)C(C(N1C(=O)CC)N3C(=O)CC)N2C(=O)CC` the figure was inactive: -6.2%; with `Cc1cc(SC(NC(=O)c2ccc(F)cc2)C(Cl)(Cl)Cl)ncn1` (centres undefined), inactive: -3.8%; with `CCOP(=O)(Nc1ccccc1)OCC`, inactive: -7.2%.
With `CCN(N=Nc1nonc1N)c1nonc1N` the figure was inactive: -8.9%.
Take `COc1ccccc1OP(=O)(Nc1ccc(C)cn1)Oc1ccccc1OC`: the displacement is inactive: 44.5%.
With `CN1CCCC(OC(=O)C(c2ccccc2)c2ccccc2)C1` (centres undefined), the displacement was inactive: -5.8%.
Regarding `Clc1ccc(Cl)c(NC2=NCC(CBr)S2)c1` (centres undefined), the displacement was inactive: -3.4%.
With `NC(=O)c1cc([N+](=O)[O-])cc([N+](=O)[O-])c1N` the figure was inactive: -4.9%; with `Cc1ccc(N/C(=N/P(=O)(N2CCOCC2)N2CCOCC2)N2CCOCC2)cc1`, inactive: -1.4%; with `CC(C)CC(=O)NC(Sc1ccc(Cl)cc1)C(Cl)(Cl)Cl` (centres undefined), inactive: -3.3%.
As for `Oc1ccccc1CNc1ccccn1`, the displacement was inactive: -9%.
With `O=C(NC(Sc1ccncn1)C(Cl)(Cl)Cl)c1ccccc1` (centres undefined) the figure was inactive: -6.1%.
In the case of `Cc1c2non([O-])c-2c(C)[n+](=O)[n+]1[O-]`, the displacement was inactive: -3.6%.
With `O=[N+]([O-])c1cccc2n[nH]nc12` the figure was inactive: -6.7%; with `CC(=O)N1C2C3N(C(C)=O)C1C1N(C(C)=O)C(C(N1C(C)=O)N3C(C)=O)N2C(C)=O`, inactive: -6.3%; with `Cc1ccc(NP(=O)(Oc2ccccc2)Oc2ccccc2)nc1`, inactive: -7.7%.
With `CCc1nc2c(n1)c1c(non1O)c1c2no[n+]1[O-]` the figure was inactive: -3.6%.
`O=[N+]([O-])c1cc([N+](=O)[O-])c(CCNc2ccccc2)c([N+](=O)[O-])c1`: the displacement is inactive: 1.5%.
As for `COc1ccc(C2=NCC(CBr)S2)cc1` (centres undefined), the displacement was inactive: -13.2%.
The value for `CC(C)=N/N=C(\N)N[N+](=O)[O-]` was inactive: -8%.
With `CN(C)C(=O)OCCc1n(C)cc[n+]1C` the figure was inactive: -6.6%.
As to `CC1CCN(C(=O)Oc2c(Cl)cc(Cl)c3cccnc23)CC1`, the displacement was inactive: -0.8%.
The value for `CCN(/C(=N/P(=O)(N1CCOCC1)N1CCOCC1)N1CCOCC1)c1ccc(OC)cc1` was inactive: -5.6%; that for `O=[N+]([O-])c1ncn(CCn2ncnc2[N+](=O)[O-])n1` was inactive: -4.6%.
